Laboratory results published in patent US20070059309A1 (Genentech, published 2007).

Chains of the proteins cited; added tags and fusions are not shown. Residues count along the entry.
UniProt P32881, 24-189 limits assumed: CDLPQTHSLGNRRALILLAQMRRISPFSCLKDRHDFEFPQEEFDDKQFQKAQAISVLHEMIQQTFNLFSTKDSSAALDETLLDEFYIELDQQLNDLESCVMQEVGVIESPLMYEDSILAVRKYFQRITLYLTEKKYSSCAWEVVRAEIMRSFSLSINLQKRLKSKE

Tests used:
[1] = biological target: T1, recombinant human IFN-α8 (human, UniProt P32881 24-189); assay: cell-based or functional assay
[2] = biological target: T1, recombinant human IFN-α8; assay: cell-based or functional assay; remark: listed apart in the source

B1: murine anti-human IFN-α monoclonal antibody 9F3 (antibody, IgG2, V domains shown)
VL: DIVLTQSPASLAVSLGQRATISCRASQSVSTSSYSYMHWYQQKPGQPPKVLISYASNLESGVPARFSGSGSGTDFTLNIHPVEEGDTATYFCQHSWGIPRTFGAGTKLELRR
V domain: EVQLQQSGPELVKPGASVKISCKTSGYTFTEYIIHWVKQGHGRSLEWIGSINPDYDITNYNQRFKGKATLTLDKSSRTAYLELRSLTSEDSAVYYCASWISDFFDYWGQGTTLMVSA
- EC50 (read off the curve); neutralization of anti-viral activity, EMC virus / A549 cells [1]: ~1 µg/mL
- EC50 (read off the curve); neutralization of anti-viral activity, EMC virus / A549 cells [left panel] [2]: ~0.4 µg/mL
